A549 tox = counter-screen for Nrf2 inhibitors: cytotoxicity in A549 cells. Potency, µM (series often up to 46 µM), inactives show at the highest dose activity change, negative = cytotoxicity, hits mostly inhibitors. actives 0.16% (n = 390,000). A549 ARE-Fluc cells, CellTiter-Fluor viability, 18-24 h; further: potency means the concentration at half of the fitted maximal effect; on the % scale 0 is the no-effect control and ±100 the full control effect
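A549 ARE_Fluc cells in 5% FBS OPTI-MEM were exposed to compounds in concentration-response for 18-24 h at 37 deg C. Viability was read by CellTiter-Fluor fluorescence (Ex 405/Em 525) after 30 min, before the luciferase read.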
TCR activator = activates T cell receptor signaling; 330,000 tested, under 10 active; AID 504894; primary human leukocytes, anti-CD3, IL-2 HTRF, 48 h; Potency, µM (top dose mostly 9.22 µM), for inactives: top-dose activation of IL-2 secretion, hits mostly activators; further: % of control where 0% means no effect
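48 hr co-incubation of compounds, a-CD3 beads and primary human leukocytes; IL-2 quantified homogeneously by HTRF with anti-IL-2 K and d2 conjugates.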
Nrf2 block = Nrf2 pathway inhibition; A549 ARE-Fluc reporter, luciferase luminescence, 18-24 h; actives 2.1% (n = 360,000); Potency, µM (highest dose often 46 µM), for the others: at the top dose activity change, negative = inhibition, most hits filed as inhibitors; AID 504444; further: potency means the concentration at half of the fitted maximal effect; on the % scale 0 is the no-effect control and ±100 the full control effect; nearly all actives have a fitted effect of over 60% in size
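Cells were seeded and rested 2 h, then exposed to compounds for 18-24 h. CellTiter-Fluor was read first as a viability measure. BugLite was added 15 min before the final luminescent read of ARE-luciferase activity in A549 cells.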
ClpP mod = qHTS Assay for Activators of ClpP; actives 1.9% (n = 340,000); purified B. subtilis ClpP, FRET peptide cleavage, 20 min; Potency, µM (doses to about 57.5 µM), for inactives: at the top dose activity change, negative = active; AID 651965, 2013; active means well fitted falling curve with a large enough effect; inconclusive means small, poorly fitted or top-dose-only effect; inactive means no such curve, though single readings can be large or run the other way; further: potency means the concentration at half of the fitted maximal effect; the source files actives as falling curves though it sought activators and does not explain the sign; nearly all actives have a fitted effect of over 65% in size
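Purified B. subtilis ClpP, 10 microg/mL final in Tris/HCl pH8 with KCl, BSA, glycerol and Tween-20, cleaved an Abz/nitrotyrosine-quenched decapeptide. Fluorescence (ex 320, em 430) was read at 0 and 20 min at room temperature. Delta was normalized to 5.8 microM ADEP and DMSO/no-enzyme controls.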
Nrf2 ARE act = activates Nrf2 signaling; Potency, µM (series often up to 46.1 µM), without a hit: at the top dose activation, most hits filed as activators; AREc32 ARE-luciferase reporter (MCF7-derived line), luminescence, 24 h; actives 0.31% (n = 410,000); further: potency means the concentration at half of the fitted maximal effect; % of control where 0% means no effect; nearly all actives have a fitted effect of over 65% in size
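Steps: seed AREc32_Fluc cells (1000/well, 5% FBS OPTI-MEM); incubate overnight at 37 deg C; add 23 nL compound; incubate 24 hr; add Steady-Glo; hold 30 min RT; read luminescence.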
miR-21 reporter = raises the signal of a miR-21 reporter | Potency, µM (doses to about 38.3 µM), for inactives: top-dose reporter change, positive = more light | HeLa miR-21 FLuc reporter, luciferase, 48 h | AID 2288 | 340,000 tested, under 10 active; active = well fitted rising curve with a large enough effect; inconclusive = small, poorly fitted or top-dose-only effect; inactive = no such curve, though single readings can be large or run the other way;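 also: % of control where 0% means no effect; miR-21 action dims this reporter so a rising signal means less miR-21 action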
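HeLa miR-21-FLuc reporter line, endogenous miR-21; 2000 cells/well in DMEM/10% FBS; compound titration up to ~40uM final, 48 h, 37 degree Celsius; luciferase detection reagent, 15 min lysis, CCD luminescence.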
Numbers without * were called inactive; ? = inconclusive; nt = no result given; [ ] = remark or other dose. A selection: hits, their analogues and other compounds. The true share with any hit is near 3.7%. Unless noted, the call rests on the fitted dose curve; in most records, active means well fitted curve in the direction sought with a large enough effect; inconclusive means small, poorly fitted or top-dose-only effect, or another doubt; inactive means no such curve, though single readings can be large; an effect the other way counts as inactive or inconclusive.

SMILES	A549 tox	TCR activator	Nrf2 block	ClpP mod	Nrf2 ARE act	miR-21 reporter
CCCN1CCN(c2cc3c(cc2F)c(=O)c(S(=O)(=O)c2ccc(Cl)cc2)cn3C)CC1	-15%	nt	19%	16µM*	-1%	-6%
Cn1cc(S(=O)(=O)c2ccc(Cl)cc2)c(=O)c2cc(F)c(N3CCCCCC3)cc21	-23%	nt	16µM*	-17%	0%	4%
CCOc1cccc(NCc2cc3c(C(C)(C)C)nn(-c4ccccc4)c3[nH]c2=O)c1	?	-1%	21µM*	-2%	23%	1%
Cc1ccc(NS(=O)(=O)c2cc3c(cc2C)OCC(=O)N3)cc1C	3%	nt	-14%	nt	nt	nt
CC1=C(C(=O)N(C)C)CC(CC(=O)NCCCCc2ccccc2)C(=O)N1Cc1ccccc1 (configuration not stated)	nt	nt	nt	0%	-1%	nt
CCn1c(SCC(=O)N/N=C/C=C\c2ccco2)nc2ccccc21	0%	1%[46.1 µM]	?	nt	3.5µM*	-3%
Cc1ccc(Cn2c(SCC(=O)N/N=C/c3ccc(C)o3)nc3ccccc32)cc1	-1%	-17%	-14%	-1%	9%	-9%
O=C(CSc1nc2ccccc2n1Cc1ccccc1)N/N=C/c1ccco1	-18%	-4%	8.2µM*	-3%	?	2%
CC(=NNc1nc2ccccc2o1)c1cc2ccccc2cn1	10µM*	9%	?	-3%	-2%	nt
Cc1cc(C)nc(Nc2nc3ccccc3o2)n1	14%	7%	?	nt	3%	-44%
Cc1ccccc1Cc1c(C)nc2c(C(=O)N3CCN(Cc4ccc5c(c4)OCO5)CC3)cnn2c1C	-10%	3%	?	32µM*	0%	nt
C=CCc1c(C)nc2c(C(=O)O)cnn2c1C	-7%	1%	0%	32µM*	0%	-4%
COC(=O)c1cnn2c(C)c(Cc3c(C)cc(C)cc3C)c(C)nc12	6%	nt	nt	-18%	-1%	-1%
O=C(CSCc1ccccc1)N1CCN(Cc2ccc3c(c2)OCO3)CC1	18%	2%[46.1 µM]	16%	1%	0%	-18%
Cc1cccc(-c2nc(CSCC(=O)N3CCN(Cc4ccc5c(c4)OCO5)CC3)c(C)o2)c1	2%	3%	21µM*	-1%	0%	21%

Limited to Nrf2 ARE act and TCR activator, for some of the entries so far:
structure	Nrf2 ARE act	TCR activator
O=C(CSCc1ccccc1)N1CCN(Cc2ccc3c(c2)OCO3)CC1	0%	2%[46.1 µM]
Cc1ccc(Cn2c(SCC(=O)N/N=C/c3ccc(C)o3)nc3ccccc32)cc1	9%	-17%

(next part)
SMILES	A549 tox	TCR activator	Nrf2 block	ClpP mod	Nrf2 ARE act	miR-21 reporter
Cc1nc2c(C(=O)N3CCN(C)CC3)cnn2c(C)c1Cc1ccc(Cl)cc1	7%	nt	nt	25µM*	0%	-8%
O=[N+]([O-])c1cccc(CON=Cc2cc(Cl)ccc2O)c1	nt	nt	nt	0%	13%	nt
CCS(=O)(=O)N1CCc2cc(C(=O)Nc3ccc(OC)cc3OC)ccc21	-10%	nt	4%	0%	-1%	8%
Cc1cccc(C(=O)N2CCN(Cc3ccc4c(c3)OCO4)CC2)c1	7%	-8%	?	-2%	0%	-1%
Cc1cccc(Cc2c(C)nc3c(C(=O)N4CCN(Cc5ccc6c(c5)OCO6)CC4)cnn3c2C)c1	-1%[1.84 µM]	nt	18µM*	22µM*	3%	12%
Cc1cc(OCC(=O)N2CCc3ccccc3C2)c2c(-c3ccccc3)cc(=O)oc2c1	-19%	3%	16µM*	-9%	2%	0%
CCOc1cc(C)cc2oc(=O)cc(-c3ccccc3)c12	-2%	12%	?	-1%	-1%	0%
COc1ccc(NC(=O)c2cccc3c(=O)c4c([nH]c23)CCCC4)cc1	9%	nt	-9%	1%	0%	0%
Cc1c(Cl)cccc1-n1nc(C)c2c(C(=O)NCc3ccccc3)cc(C3CC3)nc21	4%	nt	8%	13µM*	0%	-4%
O=C(/C=C/c1ccc(Cl)cc1)N1CCN(Cc2ccccc2)CC1	-5%	3%	4%	-1%	3%	-13%
O=C(CN1CCN(S(=O)(=O)c2ccc(Br)cc2)CC1)N/N=C/c1cc([N+](=O)[O-])ccc1Cl	1%	3%[46.1 µM]	0%	1%	13µM*	1%

Molecules shown so far containing an aryl methoxy group, in the order listed:
SMILES	A549 tox	TCR activator	Nrf2 block	ClpP mod	Nrf2 ARE act	miR-21 reporter
CCS(=O)(=O)N1CCc2cc(C(=O)Nc3ccc(OC)cc3OC)ccc21	-10%	nt	4%	0%	-1%	8%
COc1ccc(NC(=O)c2cccc3c(=O)c4c([nH]c23)CCCC4)cc1	9%	nt	-9%	1%	0%	0%

Screening data as filed in PubChem.
